Literature values, collected in US20110092532A1 (priority 2009, published 2011).
Read-outs that look alike come from different tables or passages of the source.

Tested on: Mouse

## CN1CCc2cccc3c2[C@H]1Cc1ccc(O)c(O)c1-3 [apomorphine]
Intra-peritoneal
  Toxicity, LD50: 160 mg/kg
Intra-venous
  Toxicity, LD50: 56 mg/kg
Oral
  Toxicity, LD50: 300 mg/kg
